Earlier results on 49 compounds are cited in PubChem BioAssay AID977608.

Common to all, as to test: protein-ligand inhibition affinities from structures – PDB-derived complexes (AID 977608)
For one series, the target named is Beta-secretase 1.
For series [1], the target named is Serine/threonine-protein kinase PLK1.
The target in series [2] is heat shock protein 90 alpha. Particulars: literature IC50, protein: heat shock protein 90 alpha.
Series [3] has as its target cell division protein kinase 2.
The target of series [4] is Mitogen-activated protein kinase 14.
For series [5], the target named is glutamate receptor subunit 2.
The target of the next series is odorant-binding protein. Conditions: literature IC50, protein: odorant-binding protein.
For another series, the target named is glutamate receptor 2.
Series [6] has as its target tryptophan synthase (alpha chain). Conditions: literature IC50, protein: tryptophan synthase (alpha chain).
The target of the next series is hiv-1 integrase. Particulars: literature IC50, protein: hiv-1 integrase.
Series [7] addresses Fatty-acid amide hydrolase 1.
In a further series the target is porphobilinogen synthase. Conditions: literature IC50, protein: porphobilinogen synthase.
A further series deals with L1 MBL. Particulars: literature IC50, protein: L1 MBL.
In series [8] the target is 2-C-METHYL-D-ERYTHRITOL 4-PHOSPHATE CYTIDYLYLTRANSFERASE, CHLOROPLASTIC
Particulars: literature IC50, protein: 2-C-METHYL-D-ERYTHRITOL 4-PHOSPHATE CYTIDYLYLTRANSFERASE, CHLOROPLASTIC

In series [9] the target is Pulmonary surfactant-associated protein D. Particulars: literature IC50, protein: Pulmonary surfactant-associated protein D.
For series [10], the target named is camp-dependent protein kinase, alpha-catalytic. Particulars: literature IC50, protein: camp-dependent protein kinase, alpha-catalytic.
The target in series [11] is HYPOXIA-INDUCIBLE FACTOR 1-ALPHA INHIBITOR
Conditions: literature IC50, protein: HYPOXIA-INDUCIBLE FACTOR 1-ALPHA INHIBITOR

Series [12] concerns the target LYSINE-SPECIFIC DEMETHYLASE 4A. Conditions: literature IC50, protein: LYSINE-SPECIFIC DEMETHYLASE 4A.
Series [13] has as its target Leukotriene A-4 hydrolase. Particulars: literature IC50, protein: Leukotriene A-4 hydrolase.
In series [14] the target is 3-phosphoshikimate 1-carboxyvinyltransferase. Conditions: literature IC50, protein: 3-phosphoshikimate 1-carboxyvinyltransferase.
The target of series [15] is Hepatocyte growth factor receptor. Conditions: literature IC50, protein: Hepatocyte growth factor receptor.
The target in series [16] is Prototype Foamy Virus (PFV) intasome N224H mutant. Particulars: literature IC50, protein: Prototype Foamy Virus (PFV) intasome N224H mutant, chain 3OYN_A, PDB entry 3OYN.
Series [17] concerns the target Prototype Foamy Virus (PFV) intasome S217H mutant. Particulars: literature IC50, protein: Prototype Foamy Virus (PFV) intasome S217H mutant, chain 3OYL_A, PDB entry 3OYL.
Series [18] concerns the target poly (adp-ribose) polymerase. Conditions: literature IC50, protein: poly (adp-ribose) polymerase.
The next series has as its target OMPD. Particulars: literature IC50, protein: OMPD, chain 2QCF_A, PDB entry 2QCF.
Series [19] deals with human phosphodiesterase 4d. Conditions: literature IC50, protein: human phosphodiesterase 4d.

In the case of `C[C@@H](NC(=O)c1cc(COC(=O)[C@](C)(N)Cc2ccccc2)cc(N(C)S(C)(=O)=O)c1)c1ccc(F)cc1`, the IC50 on Beta-secretase 1 (literature IC50, protein: Beta-secretase 1, chain 2PH6_A, PDB entry 2PH6) is 0.027 µM. With `CN1CCN(c2ccc(C(=O)Nc3n[nH]c4c3CN(C(=O)Cc3cccs3)C4)cc2)CC1`, in series [1] (literature IC50, protein: Serine/threonine-protein kinase PLK1, chain 2OWB_A, PDB entry 2OWB), the IC50 is 0.44 µM. For the compound `CC(C)NCCCn1c(Sc2cc3c(cc2I)OCO3)nc2c(N)ncnc21`, the IC50 in series [2] (chain 2FWZ_A, PDB entry 2FWZ) is 0.05 µM. As to `Cc1nc(C)c(-c2ccnc(N)n2)s1`, the concentration for half-maximal inhibition (IC50) in [3] (literature IC50, protein: cell division protein kinase 2, chain 1PXJ_A, PDB entry 1PXJ) was 13 µM. For the compound `O=C(OCc1ccccc1)c1cccnc1`, the IC50 in series [4] (literature IC50, protein: Mitogen-activated protein kinase 14, chain 4EH5_A, PDB entry 4EH5) is 818 µM. As to `O=c1[nH]c2cc([N+](=O)[O-])c([N+](=O)[O-])cc2[nH]c1=O`, in series [5] (literature IC50, protein: glutamate receptor subunit 2, chain 1FTL_B, PDB entry 1FTL), the IC50 was 0.998 µM.

`O=C(c1ccccc1)c1ccccc1`: the IC50 on odorant-binding protein (chain 1DZP_B, PDB entry 1DZP) was 3.6 µM.

With `CC(C)(C)c1o[nH]c(=O)c1C[C@H](N)C(=O)O`, the IC50 on glutamate receptor 2 (literature IC50, protein: glutamate receptor 2, chain 1NNK_A, PDB entry 1NNK) is 3.5 µM. Turning to `O=P(O)(O)CCCCSc1ccccc1O`, the IC50 in series [6] (chain 1C8V_A, PDB entry 1C8V) is 0.472 µM. For the compound `CC(=O)Nc1cc(S(=O)(=O)O)cc2cc(S(=O)(=O)O)cc(O)c12`, the IC50 at hiv-1 integrase (chain 1A5V_A, PDB entry 1A5V) was 800 µM.

With `CCn1c(=O)n([C@H]2CCCN(c3nccc(-c4cc5ccccc5o4)n3)C2)c2ccccc21`, in series [7] (literature IC50, protein: Fatty-acid amide hydrolase 1, chain 3QJ9_A, PDB entry 3QJ9), the half-inhibitory concentration (IC50) is 0.1 µM. Consider `O=C(O)CCCCCCCCC(=O)O`, for which the IC50 at porphobilinogen synthase (chain 1I8J_A, PDB entry 1I8J) is 39 µM; on porphobilinogen synthase (chain 1L6S_A, PDB entry 1L6S), 39 µM; at porphobilinogen synthase (chain 1L6Y_A, PDB entry 1L6Y) it was 220 µM. Consider `O=C(O)c1c(-c2ccccc2)oc(-c2ccccc2)c1C(=O)O`, for which, on L1 MBL (chain 2GFK_A, PDB entry 2GFK), the IC50 was 30 µM. Regarding `CC(C)[C@H]1CN[C@H](C(=O)O)[C@H]1CC(=O)O`, the IC50 in series [5] (literature IC50, protein: glutamate receptor subunit 2, chain 1FTK_A, PDB entry 1FTK) is 14.5 µM.

In the case of `N#Cc1cnn2c1N=C(Cl)C(Cc1ccccc1)C2=O` (stereo not drawn), in series [8] (chain 2YC5_A, PDB entry 2YC5), the IC50 was 0.035 µM. In the case of `OC[C@H](O)[C@H]1O[C@H](O)[C@@H](O)[C@@H](O)[C@@H]1O`, the IC50 in series [9] (chain 2RIB_A, PDB entry 2RIB) was 1500 µM. On to `O=C(O)c1c(-c2ccccc2)nn(-c2ccccc2)c1C(=O)O`, for which the IC50 on L1 MBL (chain 2GFJ_A, PDB entry 2GFJ) is 150 µM. Take `OC1C(O)C(O)C(O)C(O)C1O` (stereo not drawn): the half-inhibitory concentration (IC50) in [9] (chain 2OS9_A, PDB entry 2OS9) was 5700 µM. Regarding `Nc1ncnc2c1ncn2C1O[C@H](COP(=O)(O)OP(=O)(O)NP(=O)(O)O)[C@@H](O)[C@H]1O` (stereo partly drawn), the IC50 in series [1] (literature IC50, protein: Serine/threonine-protein kinase PLK1, chain 2OU7_A, PDB entry 2OU7) is 155 µM. Turning to `OC[C@@H](O)[C@H]1O[C@H](O)[C@@H](O)[C@@H](O)[C@@H]1O`, in series [9] (chain 2RIA_A, PDB entry 2RIA), the IC50 is 2700 µM.

Take `O=P(O)(O)OC1[C@H](O)[C@H](O)C(O)[C@H](O)[C@H]1O` (stereo partly drawn): in series [9] (chain 2ORK_B, PDB entry 2ORK), the IC50 is 1400 µM. With `C[C@@H](N)C1CCC(C(=O)Nc2ccncc2)CC1` (stereo partly drawn), the half-inhibitory concentration (IC50) in series [10] (chain 2GNF_A, PDB entry 2GNF) was 6 µM; in [10] (chain 2GNJ_A, PDB entry 2GNJ) it was 6 µM. On to `O=c1c(Cc2ccccc2)c(Cl)nc2nc[nH]n12`, for which, in [8] (chain 2YC3_A, PDB entry 2YC3), the IC50 is 0.14 µM. For `O=C1C[C@@H](c2ccc(O)cc2)Oc2cc(O)cc(O)c21`, in series [4] (literature IC50, protein: Mitogen-activated protein kinase 14, chain 4EH3_A, PDB entry 4EH3), the IC50 was 292 µM.

For `O=C(O)CC[C@@H](O)C(=O)O`, the IC50 in series [11] (chain 2YC0_A, PDB entry 2YC0) is 1500 µM; in series [12] (chain 2YBK_A, PDB entry 2YBK), 24 µM; in series [12] (chain 2YBP_A, PDB entry 2YBP), 24 µM. For the compound `Cc1ccc(C(C)C)c(O)c1`, the IC50 on odorant-binding protein (chain 1E06_A, PDB entry 1E06) is 2.5 µM. `O=C(O)CC[C@H](O)C(=O)O`: the IC50 was 189 µM in series [11] (chain 2YDE_A, PDB entry 2YDE) and 26 µM in series [12] (chain 2YBS_A, PDB entry 2YBS). Take `CNS(=O)(=O)Cc1ccc(N=Nc2c(O)[nH]c3ccc4ncsc4c23)cc1`: the IC50 in series [3] (literature IC50, protein: cell division protein kinase 2, chain 1KE6_A, PDB entry 1KE6) is 0.0057 µM. Turning to `OCN1CCC2(CC1)OCc1cc(Br)ccc1O2`, in series [7] (literature IC50, protein: Fatty-acid amide hydrolase 1, chain 3QKV_B, PDB entry 3QKV), the IC50 was 0.036 µM. `CN(CCCOc1ccc(Cc2ccccc2)cc1)CCC(=O)O`: in series [13] (chain 3FHE_A, PDB entry 3FHE), the IC50 is 0.0025 µM.

In the case of `CNS(=O)(=O)c1ccc(N=Cc2c(O)[nH]c3ccccc23)cc1`, the IC50 in series [3] (literature IC50, protein: cell division protein kinase 2, chain 1KE5_A, PDB entry 1KE5) was 0.56 µM.

Regarding `O=C(O)C1=C[C@@H](O)[C@@H](O)[C@H](O)C1`, the IC50 was 1200 µM in series [14] (chain 2AA9_A, PDB entry 2AA9) and 1200 µM in series [14] (chain 2AAY_A, PDB entry 2AAY). `Cn1nnc(-c2o[nH]c(=O)c2C[C@H](N)C(=O)O)n1`: the IC50 at glutamate receptor 2 (literature IC50, protein: glutamate receptor 2, chain 1M5B_B, PDB entry 1M5B) was 0.0097 µM.

Turning to `c1ccccc1`, the IC50 on hiv-1 integrase (chain 1HYZ_A, PDB entry 1HYZ) is 380 µM. With `O=C(OCc1ccccc1)c1ccccc1`, the concentration for half-maximal inhibition (IC50) at odorant-binding protein (chain 1DZM_A, PDB entry 1DZM) was 3.9 µM. Consider `O=C(Cc1ccc(F)cc1)NC(=O)Nc1ccc(Oc2ccnc3[nH]ccc23)c(F)c1`, for which the half-inhibitory concentration (IC50) in series [15] (chain 3CTJ_A, PDB entry 3CTJ) was 0.035 µM. `CCN1C[C@H](C)n2c(c(O)c3c(=O)n(Cc4ccc(F)c(Cl)c4)nc(C(=O)NC)c32)C1=O`: the IC50 in series [16] was 0.025 µM; in series [17], 0.2 µM. For `CC(C)NCCCn1c(Sc2cc3c(cc2Br)OCO3)nc2c(N)ncnc21`, in [2] (chain 2FWY_A, PDB entry 2FWY), the IC50 is 0.2 µM. As for `Cn1cc(-c2ccc3ncc(Cc4ccc5ncccc5c4)n3n2)cn1`, the IC50 in series [15] (chain 3QTI_A, PDB entry 3QTI) is 0.014 µM. Consider `CC(C)c1cccc(CNC[C@@H](O)[C@H](Cc2ccccc2)NC(=O)[C@@H]2CCC[C@H](C(C)(C)N3CCCCC3=O)C2)c1`, for which, on Beta-secretase 1 (literature IC50, protein: Beta-secretase 1, chain 3K5G_A, PDB entry 3K5G), the IC50 was 0.0025 µM. For the compound `Nc1ccc2c3c(cccc13)C(=O)NC2=O`, the IC50 in series [18] (chain 2PAX_A, PDB entry 2PAX) was 0.18 µM.

`COc1cccc(C(N)=O)c1`: in series [18] (chain 3PAX_A, PDB entry 3PAX), the IC50 was 10 µM. Regarding `COc1cc2c(Oc3ccc(-c4cnc(Cc5ccccc5)n(C)c4=O)cc3F)ccnc2cc1OCCCN1CCOCC1`, the IC50 in series [15] (chain 2RFN_A, PDB entry 2RFN) was 0.005 µM. `O=c1[nH]c(=O)n([C@@H]2O[C@H](COP(=O)(O)O)[C@@H](O)[C@H]2O)cc1F`: the IC50 on OMPD is 320 µM. As for `CC(=O)N[C@@H](Cc1cc(F)cc(F)c1)[C@H](O)CN[C@@]1(c2cccc(C(C)(C)C)c2)CCc2[nH]ncc2C1`, the IC50 at Beta-secretase 1 (literature IC50, protein: Beta-secretase 1, chain 3IVI_A, PDB entry 3IVI) is 0.012 µM. As for `O=[S@](CCCCP(=O)(O)O)c1ccccc1O`, the IC50 in series [6] (chain 1CW2_A, PDB entry 1CW2) is 0.715 µM. Turning to `Nc1ccccc1SCCCCP(=O)(O)O`, the IC50 in series [6] (chain 1CX9_A, PDB entry 1CX9) is 0.178 µM.

Take `O=c1c2cccnc2n(-c2cccc([N+](=O)[O-])c2)c(=O)n1Cc1ccncc1`: the IC50 in [19] (chain 3G4G_A, PDB entry 3G4G) is 0.00091 µM; in series [19] (chain 3G4I_A, PDB entry 3G4I) it was 0.00091 µM. Take `Oc1ccc2[nH]ccc2c1`: the IC50 in series [13] (chain 3FUH_A, PDB entry 3FUH) is 2000 µM.

What is called IC50 is the concentration at which inhibition is half-maximal.
